Values of other authors, collected in USRE50618E1, “Anionic-core composition for delivery of therapeutic agents, and methods of making and using the same” (PharmaIN Corporation, priority 2009, dated 2025).

Conditions: stated in the description; cited from earlier work

Interferon beta: type I interferon used for treatment of Multiple sclerosis
isoelectric point (pI): 8.9-9.7
